From patent US20260199309A1, “COMPOUNDS FOR THE TREATMENT OF CENTRA NERVOUS SYSTEM DISORDERS” (Autifony Therapeutics Limited, priority 2022, published 2026)

Sequences of proteins named here, by UniProt entry; tags and fusion partners are left off.
UniProt P48547, whole entry: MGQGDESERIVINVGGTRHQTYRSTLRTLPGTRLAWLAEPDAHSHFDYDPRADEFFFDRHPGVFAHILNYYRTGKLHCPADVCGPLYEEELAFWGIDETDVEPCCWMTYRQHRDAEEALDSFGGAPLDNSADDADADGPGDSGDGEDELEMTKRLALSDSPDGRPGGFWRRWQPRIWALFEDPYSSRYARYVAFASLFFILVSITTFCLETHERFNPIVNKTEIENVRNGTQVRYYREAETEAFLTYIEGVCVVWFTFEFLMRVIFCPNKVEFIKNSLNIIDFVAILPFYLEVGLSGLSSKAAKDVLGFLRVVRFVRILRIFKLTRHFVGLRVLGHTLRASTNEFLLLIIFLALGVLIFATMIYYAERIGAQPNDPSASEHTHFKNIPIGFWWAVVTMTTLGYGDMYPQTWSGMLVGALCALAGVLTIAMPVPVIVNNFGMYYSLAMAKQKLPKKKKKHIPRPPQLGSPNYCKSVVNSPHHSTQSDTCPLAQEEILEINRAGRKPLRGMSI

molecular target: human Kv3.1 channels (hKv3.1) (Homo sapiens, UniProt P48547); test: Kv3.1 channel modulation, IonWorks Quattro planar array electrophysiology; settings: HEK-293 cells expressing human Kv3.1; currents at −15 mV voltage step; normalised to 50 microM reference compound and vehicle
Text: The ability of the compounds of the invention to modulate the voltage-gated potassium channel subtypes Kv3.3/Kv3.2/Kv3.1 may be determined using the following assay. Analogous methods may be used to investigate the ability of the compounds of the invention to modulate other channel subtypes.
To assess compound effects on human Kv3.1 channels (hKv3.1): Human embryonic kidney (HEK)-hKv3.1 cell line is generated by transfecting HEK-293 cells with an expression vector with human Kv3.1 (NM_004976.4). Cells are cultured with MEM supplemented with 10% Heat-Inactivated FBS, 2 mM L-glutamine, 1% Penicillin-Streptomycin, and 0.6 mg/ml of Geneticin (G418). HEK-hKv3.1b cells were amplified in T175 cm2 flask at 37° C. with 5% C02, using MEM amplification medium, containing the G418 selection antibiotic (0.6 mg/ml). Cells were detached every 3-4 days, using DPBS to wash twice the flask, then TrypLE to dislodge the cells, and re-plated at a density of 2-4×10^6 cells/flask.
The day of the experiment, cells are removed from the incubator and the culture medium removed. Cells are washed with 5 ml of Dulbecco's PBS (DPBS) calcium and magnesium free and detached by the addition of 3 ml Versene (Invitrogen, Italy) followed by a brief incubation at 37° C. for 5 minutes. The flask is tapped to dislodge cells and 10 ml of DPBS containing calcium and magnesium is added to prepare a cell suspension. The cell suspension is then placed into a 15 ml centrifuge tube and centrifuged for 2 min at 1200 rpm. After centrifugation, the supernatant is removed and the cell pellet re-suspended in 4 ml of DPBS containing calcium and magnesium using a 5 ml pipette to break up the pellet. Cell suspension volume is then corrected to give a cell concentration for the assay of approximately 3 million cells per ml.
Experiments are conducted at r.t. using IonWorks Quattro™ planar array electrophysiology technology (Molecular Devices Corp.) with PatchPlate™ PPC. […] Planar electrode hole resistances (Rp) are determined by applying a 10 mV voltage step across each well. […]

CC1(C)NC(=O)N(c2cnc(Oc3cccc(OC(F)(F)F)c3)cc2N)C1=O and CC1(C)NC(=O)N(c2cnc(Oc3cccc(OC(F)(F)F)c3)c(N)c2)C1=O are the same in “Kv3.1 pEC50” value: 4.6 for the first, 4.6 for the second.

Cc1ccc(Oc2cc(N)c(N3C(=O)NC(C)(C)C3=O)cn2)c2c1OCC21CC1 was tested, and the “Kv3.1 pEC50” value was 5.0.
